# Patent publication US7550425B2, “Diuretic peptide conjugates” (Zealand Pharma A/S, priority 2000, dated 2009)
# Legend:
# [1] = In vitro stability in heparinised human plasma; assay type: in vitro ADME
# Method: In addition, the degradation of Compound 1 of the invention has been studied in heparinised human plama.
# The stability of peptides is analysed in human plasma. The peptides are incubated at 37° C. in plasma and samples taken at approx. 8 regular intervals between t=0 and t=390 min for Compound 1 and nociceptin-NH2, and at 9 intervals between t=0 and t=32 min for Compound CE1 are analysed by HPLC. […] This is done by subsequent injections of the drug, plasma, and a co-injection with the drug and the plasma, followed by optimisation of the LC method parameters until a satisfactory separation is obtained. Three parallel experiments are performed for each plasma type. 100 μl of peptide is mixed with 900 μl plasma at t=0 and incubated at 37° C. (drug-plasma mixture conc. 0.1 mg/ml). Samples of 100 μl of the drug-plasma mixture are removed at appropriate intervals and the degradation stopped by precipitation of the sample with 10 μl MeCN:TFA 50:50 v/v. A control plasma sample without the drug treated in the same manner is also taken. […] The resulting supernatant solution is transferred to 300 μl HP autosamler vials and analyzed by HPLC. […]
# The samples are analysed in the following order: blank, the peptide at 0.1 mg/mL, the plasma without the peptide, the three parallel samples for t=0, the three parallel samples for t=5 min. the three parallel samples for t=60 min. etc. […]
# [2] = system: conscious Sprague Dawley rats; assay type: in vivo, rat; conditions: i.v. bolus 30 nmol/kg
# Method: In the conscious rat model, the animal is chronically instrumented with catheters in the urinary bladder, the femoral artery, and the femoral vein. The animal receives a continuous i.v. infusion with isotonic saline, 50 μl/min. Urine is collected in vials in consequtive urine collection periods of 10 min each. After two control periods, the test compound is administered and fractionated urine collections (10 min periods) are continued for at least two hours. Urinary concentrations of sodium and potassium are determined by flame photometry (Instrumentation Laboratory 943) using caesium as internal standard.
# The diuretic effect of the peptide conjugates of the invention has been tested in conscious rats, where Compound 1 elicits a powerful and sustained diuretic response. […] The results are shown in FIGS. 2 to 8 wherein HR is heart rate, MAP is mean arterial pressure, V is urine flow rate, UNaV is urinary excretion rate of sodium, RSNA is renal sympathetic nerve activity expressed as % of the control level, Cosm is the osmolar clearance, and CH2O is free water clearance. […]
# One hour prior to the start of each experiment a food pellet (standard rodent chow) was placed within access to the rat though a hole in the rat holder. The number and time of feeding responses (i.e., times in which the rat began to eat the food pellet) was recorded before, and after drug administration. […]
smiles,measurement,setting,value
CC(C)C[C@H](NC(=O)[C@H](CCCCN)NC(=O)[C@H](CCCNC(=N)N)NC(=O)[C@H](C)NC(=O)[C@H](CO)NC(=O)[C@H](CCCCN)NC(=O)[C@H](CCCNC(=N)N)NC(=O)[C@H](C)NC(=O)CNC(=O)[C@@H](NC(=O)[C@H](Cc1ccccc1)NC(=O)CNC(=O)CNC(=O)[C@@H](N)Cc1ccccc1)[C@@H](C)O)C(=O)N[C@@H](C)C(=O)N[C@@H](CC(N)=O)C(=O)N[C@@H](CCC(N)=O)C(N)=O [nociceptin-NH2],half-life,"[1]; 37° C., mean (n=3) +/− deviation, read-out: T1/2 in min (degradation in human heparinised plasma)",1.62 h
same,half-life,"[1]; heparinised human plasma, read-out: half life in plasma (converted)",~1.5 h
same,"heart rate, arterial pressure and RSNA",[2],"rapid bradycardia, a hypotensive response and initial RSNA suppression"

# Where two headings read alike, the source gives them in different places.
